# Results published in ChEMBL document CHEMBL4334546, “Discovery of N-(Indazol-3-yl)piperidine-4-carboxylic Acids as RORγt Allosteric Inhibitors for Autoimmune Diseases” (ACS Med Chem Lett, 2020).
# Tested on: Mus musculus
# Test: In vivo allosteric inhibition of RORgammaT in C57BL/6 mouse assessed as reduction in Bcl-xL expression in thymocytes administered as single dose measured after 2 hrs by TaqMan gene expression analysis
# Format: functional, organism-based
smiles,measurement,value
O=C(O)c1ccc(-c2nn(C(=O)c3c(Cl)cccc3C(F)(F)F)c3cccnc23)c(F)c1,inhibition,Dose-dependent effect
